Experimental data published in PubChem BioAssay AID624246 (National Center for Advancing Translational Sciences (NCATS), 2012).
The entries are a selection whose mix differs from that of the whole data set. Some structures show a salt or complex split into parts, the way the source records it. Activity calls are given as the source filed them. Calls follow the shape of the dose curve; as a rule, active = well fitted inhibition curve with a large enough effect in the polarisation, with a control signal flat; inconclusive = small, poorly fitted or top-dose-only effect, or effect the other way, or a change in a side signal; inactive = no such curve, though single readings can be large or run the other way; the % refers to the polarisation.

Amino acid sequences for entries named in this document (tags omitted).
UniProt P11308, whole entry: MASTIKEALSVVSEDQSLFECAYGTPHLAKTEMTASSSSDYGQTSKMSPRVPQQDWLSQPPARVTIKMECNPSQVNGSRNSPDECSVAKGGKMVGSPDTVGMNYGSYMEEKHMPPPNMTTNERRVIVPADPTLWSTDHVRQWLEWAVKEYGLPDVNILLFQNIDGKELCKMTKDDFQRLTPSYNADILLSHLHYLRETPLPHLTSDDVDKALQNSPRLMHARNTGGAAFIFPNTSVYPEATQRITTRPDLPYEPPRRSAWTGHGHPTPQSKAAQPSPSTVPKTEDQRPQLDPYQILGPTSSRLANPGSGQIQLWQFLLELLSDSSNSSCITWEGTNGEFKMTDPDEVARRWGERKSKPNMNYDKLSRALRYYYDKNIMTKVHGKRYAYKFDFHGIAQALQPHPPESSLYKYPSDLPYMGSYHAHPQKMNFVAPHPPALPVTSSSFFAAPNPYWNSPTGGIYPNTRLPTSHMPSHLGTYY

Molecular target: Transcriptional regulator ERG (Homo sapiens) (UniProt P11308)
Assay: qHTS for Small Molecule Inhibitors of the ERG Ets/DNA interaction; also: % of control where 0% means no effect
Details: fluorescence polarization, His-ERG Ets domain / labelled DNA; at 76.9 µM (top of the series) unless noted
Text: The Ets family of proteins is a family of ~30 conserved transcription factors defined by the presence of an ~85 amino acid domain referred to as the Ets domain, which mediates sequence-specific DNA binding to a core DNA element GGAA/T.The Ets family member ERG has been linked to several neoplasms. […] More extensive studies of the effects of over-expression of ERG in prostate cells have recently been carried out and have shown that over-expression of ERG results in increased invasion. […] We will carry out a high throughout screen to identify inhibitors of the interaction between ERG and DNA using a fluorescence polarization (FP) assay with a His-tagged ERG Ets domain and fluorescently-labeled DNA probes to develop small molecule inhibitors of this interaction as probes to test this hypothesis and lay the groundwork for the development of targeted therapies against ERG. NIH Molecular Libraries Probe Production Network [MLPCN] NIH Chemical Genomics Center [NCGC] Grant: NS066464 PI Name: John Bushweller, University of Virgina
1.5 ul of protein solution (1 uM ERG domain in 300mM KCl, 50mM Tris-HCl, 1mM EDTA, 1mM DTT, pH 7.5); 20 nl Control plate and compound library plate; 1.5 ul mixture of 5 nM Fluorescein-DNA and 100nM Texas-615-DNA solution in same buffer as above solution; measure fluorescence polarization sequentially for fluorescein (Excitation = 480 nm, Emission = 535s, 535p nm) and Texas red (Excitation = 555 nm, Emission = 632s, 632p nm).

Compound | FP activity, negative = inhibition
CN(C)c1ccc(C(=O)NCC2(N3CCCCC3)CCCCC2)cc1 | inactive: 1.21%
Cn1c(=O)[nH]cc(N(CCCl)CCCl)c1=O | inactive: 5.68%
CCOc1ncccc1C(=O)NCC1(N2CCOCC2)CCCCC1 | inactive: 0.733%
CN1CCC(Nc2ccc(F)c(Cl)c2)CC1 | inactive: -2.14%
CC(C)(C)OC(=O)N1CCC(Nc2ccccc2)CC1 | inactive: -4.33%
O=C(O)C1(Nc2ccccc2)CCN(Cc2ccccc2)CC1 | inactive: 0.0946%
CCCOc1ccc(C(=O)NCC2(N(C)C)CCCCC2)cc1 | inactive: 2.91%
COc1cccc(C(=O)N(c2cc(C)cc(C)c2)C2CCN(C(=O)OC(C)(C)C)CC2)c1 | inactive: -16.3%
COc1cc(OC)cc(C(=O)NCC2(N3CCOCC3)CCCCC2)c1 | inactive: 1.2%
COc1cc(C(=O)NCC2(N3CCOCC3)CCCCC2)cc(OC)c1OC | inactive: 3.59%
CCC(CO)(C(=O)OC1CN2CCC1CC2)c1ccccc1 (stereo unspecified) | inactive: -5.77%
CN1CCC(Nc2ccc(Cl)cc2)CC1 | inactive: -6.82%
COc1ccc(C(=O)NCC2(N3CCCCC3)CCCCC2)cc1 | inactive: -7.56%
CC(C)(C)OC(=O)N1CCC(N(C(=O)c2ccccc2)c2ccc(F)cc2)CC1 | inactive: -3.65%
COc1ccc(C(=O)NCC2(N3CCCCC3)CCCCC2)c(OC)c1OC | inactive: 4.62%
O=C(NCC1(N2CCCCC2)CCCCC1)c1ccc(=O)[nH]c1 | inactive: -8.68%
O=C(NCC1(N2CCCCC2)CCCCC1)c1cccs1 | inactive: -5.24%
CSc1ccccc1C(=O)NCC1(N2CCCCC2)CCCCC1 | inactive: 8.03%
Cc1cccc(NC2(C#N)CCN(Cc3ccccc3)CC2)c1 | inactive: -14.4%
O=C(NCC1(N2CCCCC2)CCCCC1)c1ccc(Cl)nc1 | inactive: -3.37%
Cc1cc(C)cc(N(C(=O)c2ccccc2)C2CCN(C(=O)OC(C)(C)C)CC2)c1 | inactive: 8.43%
O=C(NCC1(N2CCOCC2)CCCCC1)c1cc2ccccc2o1 | inactive: 0.205%

Compound | FP activity, negative = inhibition
N#CC1(Nc2ccccc2)CCN(Cc2ccccc2)CC1 | inactive: 0.227%
O=C(NCC1(N2CCCCC2)CCCCC1)c1ccc(Cl)s1 | inactive: -7.9% [at 15.4 µM]
O=C(OC1CN2CCC1CC2)C1c2ccccc2Oc2ccccc21 (stereo unspecified) | inactive: 3.78%
COc1ccc(Cl)cc1C(=O)NCC1(N2CCOCC2)CCCCC1 | inactive: -2.6%
O=C1C(O)=C([N+](=O)[O-])C(=O)C(O)=C1[N+](=O)[O-] | inactive: -16.1%
CCOC(=O)N1CCC(Nc2ccc(OC)cc2)CC1 | inactive: 14.5%
O=C(NCC1(N2CCOCC2)CCCCC1)c1ccc(Cl)cc1 | inactive: -6.6%
O=C1CCN(Cc2ccccc2)CC1 | inactive: -13.5%
CCOc1ccc(C)cc1CN(CCCl)CCCl | inactive: 13.7%
COc1ccccc1C(=O)NCC1(N2CCOCC2)CCCCC1 | inactive: -7.62%
CCCCOc1ccc(C(=O)NCC2(N3CCOCC3)CCCCC2)cc1 | inactive: 0.415%
O=P1(N(CCCl)CCCl)SCCCS1 | inactive: 107%
O=C(NCC1(N2CCCCC2)CCCCC1)c1ccc(F)cc1 | inactive: 1.66%
CCOC(=O)N1CCC(Nc2ccc(F)cc2)CC1 | inactive: 10.9%
COc1ccc(NC2CCN(CCc3ccccc3)CC2)c(OC)c1 | inactive: -2.45%
CCOC(=O)N1CCC(Nc2cccc(C)c2)CC1 | inactive: -3.61%
COc1cc(C(=O)NCC2(N(C)C)CCCCC2)ccc1OC(F)F | inactive: -6.7%
O=C(NCC1(N2CCCCC2)CCCCC1)c1ccc(OC(F)F)cc1 | inactive: 12.6%
CCN1CCC(Nc2ccc(Cl)cc2)CC1 | inactive: 1.31%
N#CC1(Nc2ccccc2)CCN(CCc2ccccc2)CC1 | inactive: -5.52%
CSc1ccc(C(=O)NCC2(N3CCOCC3)CCCCC2)cc1 | inactive: -7.87%
O=C(NCC1(N2CCCCC2)CCCCC1)c1cccc([N+](=O)[O-])c1 | inactive: 4.66%

Compound | FP activity, negative = inhibition
CCOc1ccc(C(=O)NCC2(N3CCOCC3)CCCCC2)cc1 | inactive: -4.86%
O=[N+]([O-])c1cc([N+](=O)[O-])c(NCC2CCS(=O)(=O)C2)c([N+](=O)[O-])c1 (stereo unspecified) | inactive: 1.88%
O=C(NCC1(N2CCCCC2)CCCCC1)c1cccc(C(F)(F)F)c1 | inactive: -2.77%
CCCOc1cccc(C(=O)NCC2(N3CCOCC3)CCCCC2)c1 | inactive: 1.14%
O=C(NCC1(N2CCOCC2)CCCCC1)c1cc(=O)[nH]c2ccccc12 | inactive: -0.343%
COc1cc(C(=O)NCC2(N3CCCCC3)CCCCC2)ccc1OC(F)F | inactive: -12.4%
CC(C)c1ccc(C(=O)NCC2(N3CCOCC3)CCCCC2)cc1 | inactive: 16.4%
COc1ccc(NC2CCN(C(=O)OC(C)(C)C)CC2)cc1 | inactive: 6.79%
CN1CCN(CCOC(=O)C(O)(c2ccccc2)c2ccccc2)CC1 | inactive: -3.21%
CC(C)c1ccc(NC2CCN(C(=O)OC(C)(C)C)CC2)cc1 | inactive: -2.57%
COc1ccc(CN(CCCl)CCCl)cc1Cl | inactive: 11.4%
CN(C)c1cccc(C(=O)NCC2(N3CCCCC3)CCCCC2)c1 | inactive: -5.13%
O=[N+]([O-])c1cc([N+](=O)[O-])c(OC2CCCCC2O)c([N+](=O)[O-])c1 (stereo unspecified) | inactive: 2.21%
COc1cc(OC)c(C(=O)NCC2(N(C)C)CCCCC2)cc1OC | inactive: -1.43%
O=C(NCC1(N2CCOCC2)CCCCC1)c1cc(F)c(F)cc1Cl | inactive: -3.38%
O=C(OC1CN2CCC1CC2)c1ccc([N+](=O)[O-])cc1 (stereo unspecified) | inactive: -2.4%
CN1CCC(Nc2cccc(F)c2)CC1 | inactive: 0.485%
COc1ccc2c(c1O)-c1c(O)c(OC)cc3c1[C@H](C2)[N+](C)(C)CC3.O=[N+]([O-])c1cc([N+](=O)[O-])c([O-])c([N+](=O)[O-])c1[O-] | inactive: -4.63%
O=C(NCC1(N2CCCCC2)CCCCC1)c1cncc(Br)c1 | inactive: 1.69%
CCCCOc1ccccc1C(=O)NCC1(N2CCOCC2)CCCCC1 | inactive: -0.999%
O=C(NCC1(N2CCOCC2)CCCCC1)c1ccccc1Br | inactive: -1.33%
CCCOc1ccc(C(=O)NCC2(N(C)C)CCCCC2)cc1OC | inactive: 3.62%
